Columns and labels:
[1] = biological target: Mu-type opioid receptor (Rattus norvegicus) (UniProt P33535); assay: In vitro inhibitory activity against Opioid receptor mu 1 of rat brain membrane using [3H]FOXY as radioligand.; details: concentration not given here
[2] = biological target: Kappa-type opioid receptor (Cavia porcellus) (UniProt P41144); assay: In vitro inhibition of [3H]U-69593 binding to Opioid receptor kappa 1 of guinea pig brain.; details: concentration not given here
[3] = biological target: Kappa-type opioid receptor (Cavia porcellus) (UniProt P41144); assay: In vitro inhibitory activity against Opioid receptor kappa 1 of guinea pig brain using [3H]-BREM as radioligand; details: concentration not given here
[4] = biological target: Kappa-type opioid receptor (Rattus norvegicus) (UniProt P34975); assay: In vitro inhibitory activity against Opioid receptor kappa 1 of rat brain membrane using [3H]BREM as radioligand.; details: concentration not given here
[5] = biological target: Delta-type opioid receptor (Rattus norvegicus) (UniProt P33533); assay: In vitro inhibitory activity against Opioid receptor delta 1 of rat brain membrane using [3H]DADLE as radioligand.; details: concentration not given here
[6] = biological target: Kappa-type opioid receptor (Cavia porcellus) (UniProt P41144); assay: In vivo binding affinity of [3H]U-69593 to Opioid receptor kappa 1 after intracerebroventricular injection ( 100 ug of compound dissolved in 10 uL of Dimethyl sulfoxide ) in guinea pig brain
[7] = biological target: Kappa-type opioid receptor (Cavia porcellus) (UniProt P41144); assay: In vivo binding affinity of [3H]bremazocine to Opioid receptor kappa 1 after intracerebroventricular injection ( 100 ug of compound dissolved in 10 uL of Dimethyl sulfoxide ) in guinea pig brain
[8] = biological target: Kappa-type opioid receptor (Cavia porcellus) (UniProt P41144); assay: In vitro inhibitory activity against Opioid receptor kappa 1 of rat brain membrane using [3H]-BREM as radioligand.
[9] = biological target: Mu-type opioid receptor (Rattus norvegicus) (UniProt P33535); assay: Inhibitory activity against Opioid receptor mu 1 of rat brain membrane using [3H]FOXY expressed as reduction in binding of control value at 1 uM
[10] = biological target: Delta-type opioid receptor (Rattus norvegicus) (UniProt P33533); assay: Inhibitory activity against dOpioid receptor delta 1 of rat brain membrane using [3H]DADLE expressed as percent reduction in binding of the control at 1 uM
[11] = biological target: Kappa-type opioid receptor (Cavia porcellus) (UniProt P41144); assay: Inhibitory activity against kOpioid receptor kappa 1 of guinea pig brain using [3H]U-69593 expressed as percent reduction in binding of the control at 1 uM

Sequences of proteins named here, by UniProt entry; tags and fusion partners are left off.
UniProt P33535, whole entry: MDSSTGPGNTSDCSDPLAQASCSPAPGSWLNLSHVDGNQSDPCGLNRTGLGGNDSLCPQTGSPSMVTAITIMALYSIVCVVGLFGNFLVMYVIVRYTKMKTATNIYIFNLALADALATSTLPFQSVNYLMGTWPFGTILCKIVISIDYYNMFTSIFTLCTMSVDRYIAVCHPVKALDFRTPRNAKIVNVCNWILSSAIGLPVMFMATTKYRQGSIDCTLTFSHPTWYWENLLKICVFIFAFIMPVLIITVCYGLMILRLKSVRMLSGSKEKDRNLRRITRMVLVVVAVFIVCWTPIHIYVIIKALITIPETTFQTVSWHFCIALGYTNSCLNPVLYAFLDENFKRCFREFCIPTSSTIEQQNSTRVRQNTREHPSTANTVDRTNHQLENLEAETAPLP
UniProt P41144, whole entry: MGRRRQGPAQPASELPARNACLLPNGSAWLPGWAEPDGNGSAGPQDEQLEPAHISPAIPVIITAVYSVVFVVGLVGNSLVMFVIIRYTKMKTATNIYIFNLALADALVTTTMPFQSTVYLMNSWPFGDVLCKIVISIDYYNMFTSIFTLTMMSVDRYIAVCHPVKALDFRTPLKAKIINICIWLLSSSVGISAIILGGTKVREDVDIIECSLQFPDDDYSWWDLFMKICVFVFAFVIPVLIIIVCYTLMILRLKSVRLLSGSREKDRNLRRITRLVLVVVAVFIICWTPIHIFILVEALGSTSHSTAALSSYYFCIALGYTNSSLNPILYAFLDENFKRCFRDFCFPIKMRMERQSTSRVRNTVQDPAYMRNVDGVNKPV
UniProt P34975, whole entry: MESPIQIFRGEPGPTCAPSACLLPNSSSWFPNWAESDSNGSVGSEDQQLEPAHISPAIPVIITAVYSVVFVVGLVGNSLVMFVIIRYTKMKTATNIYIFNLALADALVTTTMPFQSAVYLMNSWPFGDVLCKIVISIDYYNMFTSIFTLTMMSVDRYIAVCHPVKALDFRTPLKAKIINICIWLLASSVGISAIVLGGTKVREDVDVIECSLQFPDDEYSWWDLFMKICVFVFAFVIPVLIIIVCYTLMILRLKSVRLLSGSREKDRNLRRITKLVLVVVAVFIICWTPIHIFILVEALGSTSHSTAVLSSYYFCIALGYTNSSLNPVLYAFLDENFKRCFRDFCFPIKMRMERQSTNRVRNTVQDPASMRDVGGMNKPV
UniProt P33533, whole entry: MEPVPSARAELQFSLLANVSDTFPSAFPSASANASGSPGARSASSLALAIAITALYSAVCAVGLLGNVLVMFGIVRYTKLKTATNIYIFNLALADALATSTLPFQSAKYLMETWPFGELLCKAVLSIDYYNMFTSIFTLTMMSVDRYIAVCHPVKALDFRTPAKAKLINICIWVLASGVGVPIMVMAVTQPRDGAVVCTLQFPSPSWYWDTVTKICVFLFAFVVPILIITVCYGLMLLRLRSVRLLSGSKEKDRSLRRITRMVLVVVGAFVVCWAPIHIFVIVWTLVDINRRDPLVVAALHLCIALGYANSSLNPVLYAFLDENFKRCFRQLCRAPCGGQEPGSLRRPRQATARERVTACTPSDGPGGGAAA

| SMILES | inhibition [1] | inhibition [2] | inhibition [3] | inhibition [4] | inhibition [5] | also measured |
| --- | --- | --- | --- | --- | --- | --- |
| CN(C(=O)Cc1cccc(N=C=S)c1)[C@@H]1CCCC[C@H]1N1CCCC1 | 104% | 93.6% | 110% | 97.1% | 92.3% |  |
| CN(C(=O)Cc1ccc(N=C=S)cc1)[C@@H]1CCCC[C@H]1N1CCCC1 | 124% | 94.7% | 108% | 87.6% | 113% |  |
| CN(C(=O)Cc1cccc(N)c1)[C@@H]1CCCC[C@H]1N1CCCC1 |  | 110% |  |  |  |  |
| CN(C(=O)Cc1ccc(N=C=S)cc1)[C@H]1CCCC[C@@H]1N1CCCC1 | 109% | < 70.4% | 92.1% | < 79.7% | < 42.9% |  |
| CN(C(=O)Cc1ccc(N)cc1)[C@H]1CCCC[C@@H]1N1CCCC1 |  | 88% |  |  |  |  |
| CN(C(=O)Cc1ccc(N)cc1)[C@@H]1CCCC[C@H]1N1CCCC1 |  | 94.6% |  |  |  |  |
| CN(C(=O)Cc1ccccc1N=S)[C@H]1CCCC[C@@H]1N1CCCC1 | 119% | 11.2% | 97.6% | 98.1% | 100% | Specific binding [6]: 12.3 fM/mg; Reduction [7]: 72.2%; Specific binding [8]: 167 fM/mg |
| CN(C(=O)Cc1ccccc1N)[C@H]1CCCC[C@@H]1N1CCCC1 |  | 96.6% |  |  |  |  |
| CN(C(=O)Cc1cccc(N)c1)[C@H]1CCCC[C@@H]1N1CCCC1 |  | 86.8% |  |  |  |  |
| CN(C(=O)Cc1ccccc1N=S)[C@@H]1CCCC[C@H]1N1CCCC1 | < 69% | 95.9% | 108% | 91.9% | < 89% | Reduction [9]: 69% |
| CN(C(=O)Cc1cccc(N=C=S)c1)[C@H]1CCCC[C@@H]1N1CCCC1 | 107% | < 49.6% | 102% | 93% | < 82.4% | Reduction [10]: 42.9%; Reduction [11]: 76.7% |
| CN(C(=O)Cc1ccccc1N)[C@@H]1CCCC[C@H]1N1CCCC1 |  | 95% |  |  |  |  |

Source: ChEMBL document CHEMBL1124741, “Probes for narcotic receptor mediated phenomena. 17. Synthesis and evaluation of a series of trans-3,4-dichloro-N-methyl-N-[2-(1-pyrrolidinyl)cyclohexyl]benzeneacet amide (U50,488) related isothiocyanate derivatives as opioid receptor affinity ligands” (1990)
